{
  "source": "patent EP2601931A2",
  "about": "“Cosmetic use of 3-methyl-1-phenyl-5-pyrazolon” (Henkel AG&Co. KGAA, priority 2011, dated 2013)",
  "key": {"[1]": {"test_system": "CYP26A1", "experiment": "RAMBA activity: change in CYP26A1 marker expression by qPCR in keratinocytes incubated with substance plus retinoic acid", "details": "in combination with Retinsäure; result in words on Tabelle 1", "source_text": "Verschiedene kosmetische Wirkstoffe, die zur Stoffklasse der Azole gerechnet werden können, wurden auf eine mögliche RAMBA-Aktivität hin untersucht. Zu diesem Zweck wurden humane Keratinocyaten für 16 Stunden mit den entsprechenden Substanzen in Kombination mit Retinsäure inkubiert und anschließend mittels qPCR die Expressionsänderung des Markers CYP26A1 verfolgt. Das Enzym CYP26A1 bewirkt die Metabolisierung der Retinsäure und wird durch die Retinsäure selber induziert, wodurch eine Feedbak-Regulation der Retinsäurekonzentration in der Zelle ermöglicht wird. […] Tabelle 1"}, "[2]": {"test_system": "Kollagen-Neusynthese", "experiment": "Collagen neosynthesis: P1NP secreted into the medium of a fibroblast / 3D epidermis model co-culture", "type": "cell-based", "source_text": "Ein in der Kosmetik relevanter Parameter für die Anti-Aging-Leistung eines Produktes ist die Induktion der Kollagen-Neusynthese. […] Zum Nachweis der Kollagen-Neusynthese wurde ein Co-Kultur-System verwendet, das aus einer zweidimensionalen Fibroblasten-Kultur besteht, auf die in einem Insert ein dreidimensionales Epidermismodell aufgesetzt wurde. Über das Nährmedium kann ein Stoffaustausch zwischen den Fibroblasten und den Keratinocyten des Epidermismodells erfolgen. […] Als Kontrollen für die Syntheseinduktion wurden Retinsäure und Retinol eingesetzt."}},
  "data": [
    {"compound": "CC(=O)N1CCN(c2ccc(OC[C@H]3CO[C@](Cn4ccnc4)(c4ccc(Cl)cc4Cl)O3)cc2)CC1", "note": "(racemic) [Ketokonazol]", "values": [
      {"measurement": "Induktion von CYP26A1", "setting": "[1]", "result": "deutlich vermindert"},
      {"measurement": "P1NP", "setting": "[2]; 50µM, Co-Kultur-System, P1NP in medium, unbehandelt = 107", "result": 196, "unit": "µg/mL"},
      {"measurement": "Induktion der Kollagensynthese", "setting": "[2]; result in words on Tabelle 2", "result": "zeigen eine Induktion der Kollagensynthese"}
    ]}
  ]
}
